Earlier results on 1 substance are cited in PMC4742250.

This series has as its target Thioredoxin (Escherichia coli) [thioredoxin: P0AA25].

Several values for one entry are separate records, joined by “and”; a condition that tells them apart may be missing. Equal values may be shown once.

In the case of “T7 DNA polymerase gp5 (from UniProt P00581)”, the dissociation constant Kd was 5 nM and 4 nM.
